Test results published in patent US12247064B2, “Modified ligand-gated ion channels and methods of use” (Howard Hughes Medical Institute, priority 2017, dated 2025).
pEC50: −log10 of the molar value.

By UniProt entry, the sequences of proteins in these tests, tags left out. Chains listed by the source or under a name are the forms on record and can include a tag or linker. Residues count along the entry.
UniProt P36544, 23-229 with tags or gaps: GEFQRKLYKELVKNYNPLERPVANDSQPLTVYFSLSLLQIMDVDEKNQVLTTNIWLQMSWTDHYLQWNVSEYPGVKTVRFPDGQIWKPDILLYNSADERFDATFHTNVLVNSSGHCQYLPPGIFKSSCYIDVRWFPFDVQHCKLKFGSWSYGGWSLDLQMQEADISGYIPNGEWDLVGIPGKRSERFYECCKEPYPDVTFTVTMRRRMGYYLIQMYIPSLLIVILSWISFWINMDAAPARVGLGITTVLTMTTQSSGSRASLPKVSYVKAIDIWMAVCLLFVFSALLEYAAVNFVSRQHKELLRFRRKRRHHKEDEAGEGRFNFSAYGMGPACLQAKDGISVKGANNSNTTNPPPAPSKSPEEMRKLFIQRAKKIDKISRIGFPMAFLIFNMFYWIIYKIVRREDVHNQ
UniProt P36544, 23-229 with tags or gaps Q79G limits assumed: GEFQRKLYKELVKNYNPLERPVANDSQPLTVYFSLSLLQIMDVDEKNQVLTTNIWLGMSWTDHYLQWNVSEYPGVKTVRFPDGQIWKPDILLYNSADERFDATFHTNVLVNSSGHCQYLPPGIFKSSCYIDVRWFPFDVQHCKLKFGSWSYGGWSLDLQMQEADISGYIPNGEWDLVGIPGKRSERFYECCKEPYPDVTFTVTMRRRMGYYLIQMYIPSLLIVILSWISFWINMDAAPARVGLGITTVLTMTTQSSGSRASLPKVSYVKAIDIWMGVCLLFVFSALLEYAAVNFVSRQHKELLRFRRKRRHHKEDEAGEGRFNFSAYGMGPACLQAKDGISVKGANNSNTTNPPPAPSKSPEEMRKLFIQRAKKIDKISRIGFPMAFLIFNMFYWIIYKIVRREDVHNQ

Legend:
[1] = biological target: α7-GlyR (Homo sapiens, UniProt P36544); details: read-out: α7-GlyR EC50; HEK cells; Table 3
[2] = biological target: α7^Q79G-GlyR^A298G (Homo sapiens, UniProt P36544, A298G/Q79G); details: read-out: α7^Q79G-GlyR^A298G EC50; HEK cells; Table 3

## O=C(OC1CN2CCC1CC2)c1ccc(C(F)(F)F)cc1 (centres unmarked)
[1]
  pEC50: 4.86
[2]
  pEC50: 5.84
